Like-named read-outs stand apart in the source and are kept apart here.
Experiments:
[1] = Biodistribution studies in healthy BALB/c mice; format: in vivo
[2] = biological target: T1, asialoglycoprotein receptor (ASGR) (Mus musculus, UniProt P24721+P34927); assay: Competitive binding against [^125I]I-asialoorosomucoid on freshly isolated mouse hepatocytes; conditions: [^125I]I-asialoorosomucoid 5 nM, 1 hour on ice
T1 construct: endogenous in cells; host or cells: primary hepatocytes freshly isolated from C57BL/6 mice (collagenase perfusion)
T1 sequence (P34927 1-284): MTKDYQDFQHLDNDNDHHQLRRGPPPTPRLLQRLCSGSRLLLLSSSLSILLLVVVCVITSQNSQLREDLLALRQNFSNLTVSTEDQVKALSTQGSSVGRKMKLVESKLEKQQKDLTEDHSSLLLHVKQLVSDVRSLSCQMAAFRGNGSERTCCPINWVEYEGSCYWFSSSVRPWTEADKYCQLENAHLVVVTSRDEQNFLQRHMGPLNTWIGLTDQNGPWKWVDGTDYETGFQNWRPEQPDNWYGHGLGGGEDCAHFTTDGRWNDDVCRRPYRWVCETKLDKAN
T1 sequence (P24721 1-301): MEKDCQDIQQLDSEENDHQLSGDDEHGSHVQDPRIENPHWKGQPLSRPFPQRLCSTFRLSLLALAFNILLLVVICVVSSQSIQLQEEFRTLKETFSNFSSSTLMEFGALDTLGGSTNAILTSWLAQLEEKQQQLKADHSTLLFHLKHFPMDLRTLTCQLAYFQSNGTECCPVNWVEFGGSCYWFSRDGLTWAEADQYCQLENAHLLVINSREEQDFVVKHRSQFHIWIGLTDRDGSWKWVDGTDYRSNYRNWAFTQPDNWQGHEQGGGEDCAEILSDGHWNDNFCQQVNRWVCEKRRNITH
Description: Inhibitory constant (IC50) values were determined in triplicates using freshly isolated mouse hepatocytes (Seglen [1976]). A detailed protocol can be found in the supplementary information. In brief, cells were incubated in presence of [^125I]I-asialoorosomucoid (5 nM) with various ligand concentrations ranging from 10^− 5-10^− 11 M for 1 hour on ice. Cells were washed and cell bound activity was released by addition of 200 µL 1 M NaOH for 10 min. The activity content in the lysates was quantified in a γ-counter (2480 Wizard^2 3”, PerkinElmer, Waltham, Massachussetts, USA) and the values were plotted in excel. Fitting of the sigmoidal binding curve and the calculation of the IC50 value was done with excel’s solver plugin.
Furthermore, low protein binding could be observed, rising from 7.6 ± 3.9% (n = 3) after 2 min to 13.6 ± 3.2% (n = 3) after 120 min of incubation. […] Binding to the ASGR was quantified in an assay with freshly isolated mouse hepatocytes using the ^natGa-complex of NODAGA-TriGalactan. […] For comparison, the affinity of GSA for the receptor was also determined.
Isolation of murine hepatocytes followed the collagenase perfusion method published by Seglen. […] Hepatocytes were resuspended in 20 – 30 mL of William’s E + Glutamaxx + 10 % FCS + 1 % Penicillin/Streptomycin (Gibco, Thermofisher Scientific) and counted, typically yielding 30 – 40 × 10^6 cells/animal. […]

logD determination = format: physicochemical
[3] = human blood serum, ref Haubner et al. [2013], cited from earlier work
[4] = ref Haubner et al. [2013], cited from earlier work

With O=C([O-])CN1CCN(CC(=O)[O-])CCN([C@H](CCC(=O)NCCCC(=O)NC(COCc2cn(CCOCCOCCO[C@@H]3O[C@H](CO)[C@H](O)[C@H](O)[C@H]3O)nn2)(COCc2cn(CCOCCOCCO[C@@H]3O[C@H](CO)[C@H](O)[C@H](O)[C@H]3O)nn2)COCc2cn(CCOCCOCCO[C@@H]3O[C@H](CO)[C@H](O)[C@H](O)[C@H]3O)nn2)C(=O)[O-])CC1.[68Ga+3] [[^68Ga]Ga-NODAGA-TriGalactan] as the molecule, how does the “Biodistribution Heart” value ([1]; 10 min p.i.) read?
Its value is 1.18 ± 0.08 % ID/g.

What about the “Biodistribution Stomach” value ([1]; 10 min p.i.) of the same molecule?
The value was 1.42 ± 0.23 % ID/g.

With “DTPA-conjugated galactosyl human serum albumin [GSA]” as the molecule, how does the IC50 [2] read?
Its IC50 is 19.6 ± 17.1 nM.

For “[^99mTc]Tc-diethylenetriamine-pentaacetic acid galactosyl human serum albumin [^99mTc-GSA, reference compound]”, which IC50 [2] is on record?
Its IC50 is 19.6 ± 17.1 nM.

What about the logD (logD determination) of the same molecule?
The logD was -1.88 ± 0.02 (n = 8).

What about the “Biodistribution Blood” value ([1]; 10 min p.i.) of the same molecule?
Its value is 3.13 ± 0.15 % ID/g.

And the “Biodistribution Femur” value ([1]; 10 min p.i.)?
The value was 1.54 ± 0.18 % ID/g.

And the “Biodistribution Heart” value ([1]; 10 min p.i.)?
The value was 1.47 ± 0.07 % ID/g.

And the “Biodistribution Intestine” value ([1]; 10 min p.i.)?
Its value is 1.10 ± 0.05 % ID/g.

What about the “Biodistribution Kidneys” value ([1]; 10 min p.i.) of the same molecule?
The value was 7.35 ± 0.51 % ID/g.

And the “Biodistribution Liver” value ([1]; 10 min p.i.)?
The value was 58.1 ± 6.7 % ID/g.

And the “Biodistribution Lung” value ([1]; 10 min p.i.)?
The value was 2.04 ± 0.11 % ID/g.

And the “Biodistribution Muscle” value ([1]; 10 min p.i.)?
Its value is 0.60 ± 0.04 % ID/g.

And the “Biodistribution Pancreas” value ([1]; 10 min p.i.)?
Its value is 0.64 ± 0.02 % ID/g.

What about the “Biodistribution Spleen” value ([1]; 10 min p.i.) of the same molecule?
The value was 1.37 ± 0.16 % ID/g.

What about the “Biodistribution Stomach” value ([1]; 10 min p.i.) of the same molecule?
Its value is 0.91 ± 0.01 % ID/g.

And the “Biodistribution Blood” value ([1]; 30 min p.i.)?
Its value is 2.76 ± 0.57 % ID/g.

What about the “Biodistribution Femur” value ([1]; 30 min p.i.) of the same molecule?
Its value is 3.64 ± 1.98 % ID/g.

And the “Biodistribution Heart” value ([1]; 30 min p.i.)?
Its value is 1.08 ± 0.16 % ID/g.

What about the “Biodistribution Intestine” value ([1]; 30 min p.i.) of the same molecule?
Its value is 6.41 ± 1.05 % ID/g.

What about the “Biodistribution Kidneys” value ([1]; 30 min p.i.) of the same molecule?
Its value is 10.5 ± 2.00 % ID/g.

And the “Biodistribution Liver” value ([1]; 30 min p.i.)?
Its value is 51.3 ± 2.78 % ID/g.

And the “Biodistribution Lung” value ([1]; 30 min p.i.)?
The value was 1.64 ± 0.20 % ID/g.

And the “Biodistribution Muscle” value ([1]; 30 min p.i.)?
Its value is 0.45 ± 0.06 % ID/g.

What about the “Biodistribution Pancreas” value ([1]; 30 min p.i.) of the same molecule?
The value was 0.48 ± 0.07 % ID/g.

And the “Biodistribution Spleen” value ([1]; 30 min p.i.)?
Its value is 1.42 ± 0.39 % ID/g.

And the “Biodistribution Stomach” value ([1]; 30 min p.i.)?
The value was 1.61 ± 0.20 % ID/g.

And the “Biodistribution Blood” value ([1]; 60 min p.i.)?
Its value is 1.98 ± 0.10 % ID/g.

And the “Biodistribution Femur” value ([1]; 60 min p.i.)?
Its value is 2.48 ± 0.48 % ID/g.

What about the “Biodistribution Heart” value ([1]; 60 min p.i.) of the same molecule?
The value was 0.81 ± 0.07 % ID/g.

What about the “Biodistribution Intestine” value ([1]; 60 min p.i.) of the same molecule?
Its value is 9.8 ± 1.6 % ID/g.

And the “Biodistribution Kidneys” value ([1]; 60 min p.i.)?
Its value is 9.21 ± 0.21 % ID/g.

And the “Biodistribution Liver” value ([1]; 60 min p.i.)?
The value was 46.3 ± 5.9 % ID/g.

And the “Biodistribution Lung” value ([1]; 60 min p.i.)?
The value was 1.38 ± 0.11 % ID/g.

And the “Biodistribution Muscle” value ([1]; 60 min p.i.)?
Its value is 0.39 ± 0.00 % ID/g.

And the “Biodistribution Spleen” value ([1]; 60 min p.i.)?
The value was 1.18 ± 0.20 % ID/g.

And the “Biodistribution Stomach” value ([1]; 60 min p.i.)?
The value was 2.43 ± 1.45 % ID/g.

What about the Serum stability ([3]; 2 min) of the same molecule?
Its Serum stability is 82 (Haubner et al. [2013]) %.

And the Serum stability ([3]; 30 min)?
The Serum stability was 76 (Haubner et al. [2013]) %.

What about the Serum stability ([3]; 60 min) of the same molecule?
Its Serum stability is 70 (Haubner et al. [2013]) %.

What about the Serum stability ([3]; 120 min) of the same molecule?
Its Serum stability is 65 (Haubner et al. [2013]) %.

And the PBS stability ([4]; 2 min)?
The PBS stability was 97.6 (Haubner et al. [2013]) %.

And the PBS stability ([4]; 30 min)?
The PBS stability was 97.1 (Haubner et al. [2013]) %.

And the PBS stability ([4]; 120 min)?
The PBS stability was 95.6 (Haubner et al. [2013]) %.
